Consider four compounds from patent publication US10752613B2, “Compounds and their use for reducing uric acid levels” (Acquist LLC, priority 2016, dated 2020).

Protein sequences, listed by entry. Tags and fused reporters are not part of them. Lines headed by an entry give the natural chain unless they say otherwise; changes in a name come on top.
UniProt Q96S37: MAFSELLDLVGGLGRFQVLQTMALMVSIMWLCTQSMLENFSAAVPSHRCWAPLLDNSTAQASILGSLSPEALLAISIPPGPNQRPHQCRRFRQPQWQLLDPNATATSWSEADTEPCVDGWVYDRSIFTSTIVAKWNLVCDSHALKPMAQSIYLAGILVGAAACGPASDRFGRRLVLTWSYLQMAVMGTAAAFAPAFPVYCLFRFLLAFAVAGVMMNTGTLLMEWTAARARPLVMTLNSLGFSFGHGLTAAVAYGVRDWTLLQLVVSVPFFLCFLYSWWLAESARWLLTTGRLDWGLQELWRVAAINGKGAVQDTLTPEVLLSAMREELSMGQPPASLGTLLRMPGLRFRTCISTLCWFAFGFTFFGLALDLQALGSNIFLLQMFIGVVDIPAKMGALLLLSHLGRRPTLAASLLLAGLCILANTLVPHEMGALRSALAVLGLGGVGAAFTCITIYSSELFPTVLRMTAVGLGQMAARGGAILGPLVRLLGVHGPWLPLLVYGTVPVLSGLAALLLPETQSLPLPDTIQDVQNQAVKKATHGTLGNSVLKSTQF

This assay deals with URAT1 (SLC22A12) (Homo sapiens (Human), UniProt Q96S37). In words: URAT1 (SLC22A12) cellular uptake assay, 3H-orotate transport in stably transfected URAT-1/CHO cells. Conditions: for URAT1 inhibition in words / compared with lesinurad: comparison in words; for IC50: read-out: URAT1 IC50, 3H-orotate uptake, URAT-1/CHO cells, URAT1 assay as described herein.

SMILES strings stand for the structures.

As for `O=C(Nc1ccc(-c2nn[nH]c2-c2ccccc2)cc1)c1c(O)[nH]c(=O)[nH]c1=O` [Formula (Ic), 6-hydroxy-2,4-dioxo-N-(4-(4-phenyl-1H-1,2,3-triazol-5-yl)phenyl)-1,2,3,4-tetrahydropyrimidine-5-carboxamide], the “URAT1 inhibition in words / compared with lesinurad” value is “more potent inhibitors of URAT1 than lesinurad” and the IC50 amounted to 0.11 µM.
Turning to `O=C(Nc1ccc(-c2c[nH]nn2)c(C(F)(F)F)c1)c1c(O)[nH]c(=O)[nH]c1=O` [Formula (Ig), N-(4-(1H-1,2,3-triazol-5-yl)-3-(trifluoromethyl)phenyl)-6-hydroxy-2,4-dioxo-1,2,3,4-tetrahydropyrimidine-5-carboxamide], the half-maximal inhibitory concentration (IC50) was determined as 2.7 µM.
Still for that read-out and setting: for `O=C(Nc1ccc(-c2c[nH]nn2)cc1C(F)(F)F)c1c(O)[nH]c(=O)[nH]c1=O` [Formula (Ih), N-(4-(1H-1,2,3-triazol-5-yl)-2-(trifluoromethyl)phenyl)-6-hydroxy-2,4-dioxo-1,2,3,4-tetrahydropyrimidine-5-carboxamide] the value was 1.6 µM.
With `O=C(Nc1ccc(-c2cc(O)n[nH]2)cc1)c1c(O)[nH]c(=O)[nH]c1=O` [Formula (Ii), 6-hydroxy-N-(4-(3-hydroxy-1H-pyrazol-5-yl)phenyl)-2,4-dioxo-1,2,3,4-tetrahydropyrimidine-5-carboxamide], the “URAT1 inhibition in words / compared with lesinurad” value is given as “potent inhibitors of URAT1” and the IC50 was 9.1 µM.

A word on the IC50: it is the concentration that gives 50% inhibition.
